Source: paper PMC7341468 (BMC Pharmacology & Toxicology, 2020)
Where two headings read alike, the source gives them in different places.

Tests used:
[1] = cited from earlier work
Method: Traditionally, a Cmin ≥ 10 μg/mL is considered appropriate for MRSA infections.

[2] = for Initial Cmin, median (interquartile range): serum, fourth day (72 h after first dose), FPIA; for Adjusted odds ratio (95%CI) for teicoplanin initial Cmin ≥20 μg/mL: multivariate analysis; for Crude odds ratio (95%CI) for teicoplanin initial Cmin ≥20 μg/mL: univariate analysis; for Teicoplanin max Cmin: conventional regimen
[3] = factor: Intensive care unit stay (> 3 days)
[4] = factor: Total parenteral nutrition
[5] = factor: eGFR≥60 mL/min/1.73 m^2

## teicoplanin
[1]; 600 mg at 12-h intervals for five doses (total dose 3000 mg), mean body weight approximately 50 kg
  Patients in whom a Cmin 15–30 μg/mL was obtained: 68%
[1]; 600 mg at 12-h intervals for five doses (total dose 3000 mg)
  Mean Cmin: 20000 ng/mL
[1]; 600 mg at 12-h intervals for five doses, post-hoc analysis
  Patients in whom target Cmin ≥ 20 μg/mL was obtained: less than half of the patients
[1]; patients with haematological malignancy, ref 11 (Byrne et al.)
  Mean Cmin on days 3–7 in successful cases: 19600 ng/mL
[2]; conventional high loading dose regimen (10 mg/kg, five doses in initial 3 days, adjusted to eGFR), n = 363
  Initial Cmin, median (interquartile range): 18.3 (15.1–22.8) μg/mL
[2]; enhanced high loading dose regimen (12 mg/kg, five doses in initial 3 days, adjusted to eGFR), n = 149
  Initial Cmin, median (interquartile range): 24.9 (20.8–28.3) μg/mL
[2]; enhanced high loading dose regimen, 149 patients
  Patients with Cmin ≥ 60 μg/mL: no patient experienced a Cmin ≥ 60 μg/mL
[2]; enhanced high loading dose regimen, n = 149, 5 patients
  Patients with initial Cmin ≥ 40 μg/mL: 5 (3.4%)
[2]; enhanced high loading dose regimen, n = 149, 32 patients
  Patients with initial Cmin < 20 μg/mL: 32 (21.5%)
[2]; enhanced high loading dose regimen, n = 149, 112 patients
  Patients with initial Cmin 20–40 μg/mL (target range): 112 (75.2%)
[2]; factor: APACHE II score ≥ 15
  Adjusted odds ratio (95%CI) for teicoplanin initial Cmin ≥20 μg/mL: 0.78 (0.44–1.35)
  Crude odds ratio (95%CI) for teicoplanin initial Cmin ≥20 μg/mL: 0.56 (0.38–0.84)
[2]; factor: Age (> 65 years)
  Crude odds ratio (95%CI) for teicoplanin initial Cmin ≥20 μg/mL: 0.88 (0.62–1.26)
[2]; factor: Anticancer therapy
  Crude odds ratio (95%CI) for teicoplanin initial Cmin ≥20 μg/mL: 1.15 (0.63–2.10)
[2]; factor: Body mass index ≥25
  Adjusted odds ratio (95%CI) for teicoplanin initial Cmin ≥20 μg/mL: 2.33 (1.24–4.38)
  Crude odds ratio (95%CI) for teicoplanin initial Cmin ≥20 μg/mL: 1.73 (1.04–2.87)
[2]; factor: Body mass index< 18.5
  Crude odds ratio (95%CI) for teicoplanin initial Cmin ≥20 μg/mL: 0.79 (0.52–1.18)
[2]; factor: Chronic renal failure
  Adjusted odds ratio (95%CI) for teicoplanin initial Cmin ≥20 μg/mL: 0.62 (0.38–1.03)
  Crude odds ratio (95%CI) for teicoplanin initial Cmin ≥20 μg/mL: 0.55 (0.36–0.83)
[2]; factor: Chronic respiratory disease
  Crude odds ratio (95%CI) for teicoplanin initial Cmin ≥20 μg/mL: 0.99 (0.46–2.15)
[2]; factor: Collagen disease
  Crude odds ratio (95%CI) for teicoplanin initial Cmin ≥20 μg/mL: 0.80 (0.45–1.42)
[2]; factor: Complicated MRSA infections
  Crude odds ratio (95%CI) for teicoplanin initial Cmin ≥20 μg/mL: 1.13 (0.73–1.75)
[2]; factor: Diabetes mellitus
  Crude odds ratio (95%CI) for teicoplanin initial Cmin ≥20 μg/mL: 0.98 (0.65–1.49)
[2]; factor: Enhanced high loading dose regimen
  Adjusted odds ratio (95%CI) for teicoplanin initial Cmin ≥20 μg/mL: 7.75 (4.62–12.99)
[2]; factor: Heart disease
  Crude odds ratio (95%CI) for teicoplanin initial Cmin ≥20 μg/mL: 1.09 (0.76–1.55)
[2]; factor: Immunosuppressive therapy
  Crude odds ratio (95%CI) for teicoplanin initial Cmin ≥20 μg/mL: 1.70 (0.77–3.76)
[2]; factor: Inflammatory bowel disease
  Crude odds ratio (95%CI) for teicoplanin initial Cmin ≥20 μg/mL: 0.88 (0.56–1.39)
[2]; [3]
  Adjusted odds ratio (95%CI) for teicoplanin initial Cmin ≥20 μg/mL: 0.32 (0.19–0.56)
  Crude odds ratio (95%CI) for teicoplanin initial Cmin ≥20 μg/mL: 0.41 (0.26–0.65)
[2]; factor: Liver cirrhosis/chronic hepatic dysfunction
  Crude odds ratio (95%CI) for teicoplanin initial Cmin ≥20 μg/mL: 0.80 (0.48–1.31)
[2]; factor: MRSA infections
  Crude odds ratio (95%CI) for teicoplanin initial Cmin ≥20 μg/mL: 0.98 (0.66–1.45)
[2]; factor: Malignant tumor
  Crude odds ratio (95%CI) for teicoplanin initial Cmin ≥20 μg/mL: 0.79 (0.55–1.12)
[2]; factor: Serum albumin < 2.5 g/dL (median), hypoalbuminemia
  Adjusted odds ratio (95%CI) for teicoplanin initial Cmin ≥20 μg/mL: 0.24 (0.15–0.37)
[2]; factor: Serum albumin < 2.5 g/dL (median)
  Crude odds ratio (95%CI) for teicoplanin initial Cmin ≥20 μg/mL: 0.33 (0.23–0.47)
[2]; factor: Sex (male)
  Crude odds ratio (95%CI) for teicoplanin initial Cmin ≥20 μg/mL: 0.85 (0.60–1.22)
[2]; factor: Steroid use
  Crude odds ratio (95%CI) for teicoplanin initial Cmin ≥20 μg/mL: 0.88 (0.55–1.40)
[2]; factor: Surgery within 28 days
  Adjusted odds ratio (95%CI) for teicoplanin initial Cmin ≥20 μg/mL: 0.47 (0.30–0.74)
  Crude odds ratio (95%CI) for teicoplanin initial Cmin ≥20 μg/mL: 0.59 (0.40–0.86)
[2]; [4]
  Adjusted odds ratio (95%CI) for teicoplanin initial Cmin ≥20 μg/mL: 0.54 (0.32–0.92)
  Crude odds ratio (95%CI) for teicoplanin initial Cmin ≥20 μg/mL: 0.70 (0.43–1.03)
[2]; factor: Transplantation
  Crude odds ratio (95%CI) for teicoplanin initial Cmin ≥20 μg/mL: 2.79 (0.56–13.97)
[2]; factor: Ventilator use
  Adjusted odds ratio (95%CI) for teicoplanin initial Cmin ≥20 μg/mL: 1.51 (0.68–3.36)
  Crude odds ratio (95%CI) for teicoplanin initial Cmin ≥20 μg/mL: 0.58 (0.37–0.93)
[2]; [5]
  Adjusted odds ratio (95%CI) for teicoplanin initial Cmin ≥20 μg/mL: 1.15 (0.68–1.95)
  Crude odds ratio (95%CI) for teicoplanin initial Cmin ≥20 μg/mL: 1.43 (1.01–2.04)
[2]; serum albumin 2.0–2.5 g/dL group
  Median Cmin: 18200 ng/mL
[2]; serum albumin 2.5–3.0 g/dL group
  Median Cmin: 21600 ng/mL
[2]; serum albumin 3.0–3.5 g/dL group
  Median Cmin: 22000 ng/mL
[2]; serum albumin < 2.0 g/dL group
  Median Cmin: 16200 ng/mL
[2]; serum albumin ≥3.5 g/dL group
  Median Cmin: 25700 ng/mL
[2]; single patient No 1, total dose initial 3 days 31.2 mg/kg, eGFR 38, serum albumin 2.4 g/dL
  Teicoplanin max Cmin: 23700 ng/mL
[2]; single patient No 2, total dose initial 3 days 44.4 mg/kg, eGFR 56, serum albumin […]
  Teicoplanin max Cmin: 11000 ng/mL
[2]; single patient No 3, total dose initial 3 days 34.5 mg/kg, eGFR 20, serum albumin […]
  Teicoplanin max Cmin: 20000 ng/mL
[2]; single patient No 4, total dose initial 3 days 38.8 mg/kg, eGFR 43, serum albumin 2.6 g/dL
  Teicoplanin max Cmin: 26600 ng/mL
